{"source": "patent US20230248814A1", "about": "“COMPOSITIONS AND METHODS FOR TREATING MERKEL CELL CARCINOMA (MCC) USING HLA CLASS I SPECIFIC EPITOPES” (The Broad Institute, Inc., priority 2020, published 2023)", "molecules": {"B1": {"name": "IFN-β: type I IFN (protein, UniProt P01574 22-187, looked up)", "Interferon beta": "MSYNLLGFLQRSSNFQCQKLLWQLNGRLEYCLKDRMNFDIPEEIKQLQQFQKEDAALTIYEMLQNIFAIFRQDSSSTGWNETIVENLLANVYHQINHLKTVLEEKLEKEDFTRGKLMSSLHLKRYYGRILHYLKAKEYSHCAWTIVRVEILRNFYFINRLTGYLRN"}}, "system": "MCC lines", "experiment": "Flow cytometry for HLA-I surface expression in MCC lines after interferon treatment", "type": "cell-based, human", "details": "two lines (MCC-290, MCC-301); 24 hours", "method": "Flow cytometry. Cells were dissociated with Versene and incubated with 5 µL Human TruStain FcX (Fc Receptor Blocking Solution; Biolegend # 422302) per million cells in 100 µL at room temperature for 10 min. Fluorophore-conjugated antibodies or respective isotype controls were added and incubated for another 30 min at 4° C. Cells were then washed once with PBS and resuspended in PBS or 4% paraformaldehyde and analyzed on an LSR Fortessa cytometer. For HLA-I and HLA-II detection, the following antibodies were used: HLA-ABC (W6/32 clone) conjugated to PE (BioLegend # 311406), APC (BioLegend # 311410), or AF647 (Santa Cruz Biotechnology # sc32235 AF647), and HLA-DR-FITC (BioLegend # 307604).", "note": "Entries after “also recorded” stand apart in the source; their conditions may differ."}
{"molecule": "B1", "values": [{"measurement": "HLA I surface upregulation by type I interferon", "value": "could be upregulated; also recorded: upregulate HLA-I"}]}
